What was measured:
[1] = target: recombinant human PDE5 (Homo sapiens, UniProt O76074); test: PDE5 inhibition, IMAP FP phosphodiesterase assay; format: biochemical; conditions: for inhibition at 10 µM: read-out: PDE5 % inhibition at 10 μm
[2] = target: PDE11A (Homo sapiens, UniProt Q9HCR9); test: PDE selectivity array, PDE11A with cGMP and cAMP as substrates; conditions: ratio of IC50 PDE11A to PDE5A, cGMP as substrate

Chains of the proteins cited; added tags and fusions are not shown.
UniProt Q9HCR9, whole entry, species assumed: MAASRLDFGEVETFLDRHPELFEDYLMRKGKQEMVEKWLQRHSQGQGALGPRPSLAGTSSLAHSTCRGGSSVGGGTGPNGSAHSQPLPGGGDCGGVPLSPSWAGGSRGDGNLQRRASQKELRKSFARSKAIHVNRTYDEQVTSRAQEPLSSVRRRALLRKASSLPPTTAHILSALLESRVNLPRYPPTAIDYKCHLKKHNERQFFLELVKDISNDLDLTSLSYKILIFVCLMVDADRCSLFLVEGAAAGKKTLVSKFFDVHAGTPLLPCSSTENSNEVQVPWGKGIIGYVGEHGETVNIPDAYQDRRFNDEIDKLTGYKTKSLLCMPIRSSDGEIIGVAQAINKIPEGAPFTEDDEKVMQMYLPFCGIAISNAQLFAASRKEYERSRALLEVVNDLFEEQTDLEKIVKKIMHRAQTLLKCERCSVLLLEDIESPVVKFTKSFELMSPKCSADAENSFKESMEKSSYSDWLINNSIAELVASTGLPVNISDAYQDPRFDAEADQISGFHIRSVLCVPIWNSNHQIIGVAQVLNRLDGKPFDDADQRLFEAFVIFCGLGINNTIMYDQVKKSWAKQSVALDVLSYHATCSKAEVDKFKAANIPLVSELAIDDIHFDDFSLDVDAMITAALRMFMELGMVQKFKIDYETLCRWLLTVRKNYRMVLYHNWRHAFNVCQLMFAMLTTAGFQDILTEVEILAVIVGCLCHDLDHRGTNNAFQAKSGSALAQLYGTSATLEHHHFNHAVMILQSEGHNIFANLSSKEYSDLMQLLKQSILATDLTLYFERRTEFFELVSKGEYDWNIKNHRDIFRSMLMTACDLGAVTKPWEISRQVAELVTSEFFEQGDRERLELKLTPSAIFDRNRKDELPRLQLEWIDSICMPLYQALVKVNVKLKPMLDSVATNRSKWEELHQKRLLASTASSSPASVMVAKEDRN

| Compound | IC50 [1] | inhibition at 10 µM [1] | Selectivity index IC50 (PDE11A/PDE5A) cGMP/cGMP [2] |
| --- | --- | --- | --- |
| CCN1C(=O)[C@H]2Cc3c([nH]c4ccccc34)[C@@H](c3ccc(Br)s3)N2C1=O [Compound 5, (5S,11aR) 5-(5-Bromo-2-thienyl)-2-ethyl-5,6,11,11a-tetrahydro-1H-imidazo[1′,5 ′:1,6]pyrido[3,4-b]indole-1,3(2H)-dione] | 0.2 µM | 99% |  |
| CCN1C(=O)[C@H]2Cc3c([nH]c4ccccc34)[C@H](c3ccc(Br)s3)N2C1=O [Compound 6, (5R,11aR) 5-(5-Bromo-2-thienyl)-2-ethyl-5,6,11,11a-tetrahydro-1H-imidazo[1′,5 ′:1,6]pyrido[3,4-b]indole-1,3(2H)-dione] | 4.8 µM | 66% |  |
| CCN1C(=O)[C@@H]2Cc3c([nH]c4ccccc34)[C@H](c3ccc(Br)s3)N2C1=O [Compound 7, (5R,11aS) 5-(5-Bromo-2-thienyl)-2-ethyl-5,6,11,11a-tetrahydro-1H-imidazo[1′,5 ′:1,6]pyrido[3,4-b]indole-1,3(2H)-dione] | 2 µM | 78% |  |
| CCN1C(=O)[C@@H]2Cc3c([nH]c4ccccc34)[C@@H](c3ccc(Br)s3)N2C1=O [Compound 8, (5S,11aS) 5-(5-Bromo-2-thienyl)-2-ethyl-5,6,11,11a-tetrahydro-1H-imidazo[1′,5 ′:1,6]pyrido[3,4-b]indole-1,3(2H)-dione] |  |  | 49 |

— article PMC4980837 (Archiv der Pharmazie, 2013)
